These are literature values, as cited in US9854807B2, “Potentiation of fixed coppers and other pesticides containing copper and supplementing plant nutrition” (priority 2014, dated 2018).

The conditions of this series: terms used by Richardson.

For Basic Copper(2) sulphate, the solubility in water result was “insoluble in water”.
